The target in this test is Dual specificity protein kinase CLK1 (Homo sapiens, UniProt P49759).

Amino acid sequences for entries named in this document (tags omitted). A change or cut given only in a name is not applied to a line headed by its entry.
UniProt P49759: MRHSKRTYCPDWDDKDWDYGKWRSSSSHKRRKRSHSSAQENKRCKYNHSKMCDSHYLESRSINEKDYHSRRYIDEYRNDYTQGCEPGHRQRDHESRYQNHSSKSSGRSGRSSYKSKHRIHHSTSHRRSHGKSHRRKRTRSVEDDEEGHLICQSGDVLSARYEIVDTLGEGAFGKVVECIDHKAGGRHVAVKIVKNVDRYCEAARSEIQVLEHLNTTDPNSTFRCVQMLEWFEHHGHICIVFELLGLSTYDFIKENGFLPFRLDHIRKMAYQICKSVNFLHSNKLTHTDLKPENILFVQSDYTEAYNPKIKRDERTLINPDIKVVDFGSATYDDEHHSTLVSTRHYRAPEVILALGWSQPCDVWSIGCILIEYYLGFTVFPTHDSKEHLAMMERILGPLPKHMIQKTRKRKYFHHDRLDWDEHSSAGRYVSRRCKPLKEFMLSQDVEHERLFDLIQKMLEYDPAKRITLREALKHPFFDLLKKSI

The record followed here is ChEMBL document CHEMBL1799982, “Synthesis, protein kinase inhibitory potencies, and in vitro antiproliferative activities of meridianin derivatives” (J Med Chem, 2011).

Molecules are shown by their SMILES.

A word on the IC50: it is the point on the concentration scale where inhibition reaches its midpoint. Read a high IC50 as weaker potency in that assay. Turning to `CC(=O)c1ccc(-c2cnc(N)nc2-c2c[nH]c3cccc(Br)c23)cc1`, the IC50 was found to be 1500 nM.
